Ab-14 light chain CDR variants: yeast mating affinities

The target is the same throughout: PDVDLGDISGINAS, from the HR2 region of SARS-CoV-2 spike.

The variants keep the heavy chain, the linker and the frameworks of Ab-14 (scFv order VH, a (GGGGS)3 linker, VL).
VH: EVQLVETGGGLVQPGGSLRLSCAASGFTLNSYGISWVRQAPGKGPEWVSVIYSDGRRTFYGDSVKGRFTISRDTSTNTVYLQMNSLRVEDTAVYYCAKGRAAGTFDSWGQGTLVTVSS
VL: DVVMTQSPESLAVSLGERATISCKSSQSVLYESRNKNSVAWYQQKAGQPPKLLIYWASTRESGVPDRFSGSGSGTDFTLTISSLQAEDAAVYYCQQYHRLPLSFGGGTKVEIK

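The starting antibody came from a phage panning campaign against this peptide. Designed CDR sequences, proposed from the first random library and measured here. Their group label is 14L_En_HC (En: ensemble of fine-tuned language models; HC: hill climbing; a sequence that several methods proposed may carry one label only). The assay is AlphaSeq: two haploid yeast populations carry antibody and antigen on their surface. Mating (16 h, 30 °C) was followed by selection of diploids and sequencing of their barcodes. The ratio of observed to expected reads was calibrated, replicate by replicate, on BCL2-family standards whose Kd was known from biolayer interferometry. Mating was done six times.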

Each variant is given by its three light chain CDRs, as the data file delimits them; those of the parent are KSSQSVLYESRNKNSVA, WASTRES, QQYHRLPLS.
Numbers give log10(Kd / nM), so 0 is 1 nM and 3 is 1 µM. Smaller is tighter.
An entry "n.d." has no value in the source: the pair was not observed among the diploids in that replicate. This suggests poor binding but is not conclusive.
As a blank, each scFv also met three strains without target: over all light chain designs, 4% of these pairings were detected, typically at 2.64 and seldom below 1.59. For each scFv, signals with the empty controls are counted beside the result, with their mean in brackets.
The authors' rule: three or more of the six replicates give a measured affinity, fewer mean a poor binder.
The parent sequence was in this pool as ten entries: three were never detected, three once, and four in most replicates, with averages from 0.34 to 2.37.
A sequence measured in both rounds can read differently, since the two assays cover different ranges.

| # | CDR-L1 | CDR-L2 | CDR-L3 | log10 Kd (nM) by replicate | signal with controls |
|---|---|---|---|---|---|
| 1 | KIMQSLNYEQFNVSNVA | GQETRER | QSYHRLPLS | 1.77 2.58 2.65 1.28 1.39 1.34 | 1 of 18 (1.58) |
| 2 | NFSQMVLTGSTLRNSVA | HASTRFE | QQYHRLPLI | n.d. 2.22 4.28 n.d. 1.80 n.d. | 0 of 18 |
| 3 | TISESTYWESFNKNSVA | QTSTREE | QDYDRLPLS | n.d. n.d. n.d. 3.43 n.d. 1.55 | 0 of 18 |
| 4 | KLSQATRMESRNKASVA | ENSTRED | QQYFRLPLS | 0.24 -0.06 0.03 -0.11 -0.05 0.14 | 3 of 18 (2.31) |
| 5 | SISMSMAFLSRNKNSVA | ENSTREE | QQYHRLPLL | 1.64 1.16 0.54 0.39 1.21 0.89 | 1 of 18 (2.14) |
| 6 | HISQSVGMTSFNKNSVA | ENSTRES | QQYDRLPLS | n.d. 1.84 2.05 2.54 2.86 3.11 | 0 of 18 |
| 7 | KISMLYNYESVNKNSIA | EMTTRES | QHYHRLPLS | 0.71 0.58 0.52 0.17 0.41 0.34 | 1 of 18 (2.01) |
| 8 | NFSQMVLTGMTLRNSVA | HASTREE | QQYHRLPLI | n.d. 1.29 0.91 0.66 1.02 0.84 | 1 of 18 (2.82) |
| 9 | ALSQSMDMTSRHVNSVA | DLTTREN | QQYHRLPLS | 0.28 0.04 0.03 -0.29 -0.35 0.01 | 1 of 18 (3.07) |
| 10 | KLYQAMGYLSRNKNSIA | DMSRREN | QQYHRLPLS | 0.22 -0.02 -0.34 -0.10 -0.01 0.15 | 2 of 18 (2.08) |
| 11 | KITQLVMETSKNKNNVA | EVSTLPD | QQYHRLPLS | 0.02 -0.17 -0.09 -0.16 0.07 -0.05 | 1 of 18 (3.07) |
| 12 | KLRQLMHIESFNKNNVA | EMTMREK | QSYDRLPLS | 1.11 1.10 0.98 1.48 1.07 1.08 | 2 of 18 (3.35) |
| 13 | KLRQVTEWESFNKNSVA | QTETREN | QDYDRLPLS | n.d. n.d. n.d. n.d. n.d. n.d. | 2 of 18 (2.99) |
| 14 | KLSNVTHSESRNKNSIA | EMVTREV | QQYDRLPLS | 1.00 1.16 0.97 1.05 1.58 1.35 | 1 of 18 (1.17) |
| 15 | TISNSFMMENQFKNSVA | QASTREQ | QCYDRLPLS | 2.62 n.d. 1.67 2.25 1.66 3.60 | 0 of 18 |
| 16 | KLSMSVDYMSATHSSVA | QTSTREE | QQYHRLPLM | 0.83 0.77 0.54 0.39 0.66 0.37 | 1 of 18 (2.80) |
| 17 | QLSGPMLMESKNKNSVA | EFSTRGS | QQYHRLPLS | 1.01 1.12 1.32 1.05 0.64 1.23 | 1 of 18 (2.54) |
| 18 | TLTQVTMVESYNKNSVA | QASTRLE | QCYHRLPLS | n.d. 2.94 3.26 3.61 3.54 2.36 | 1 of 18 (3.14) |
| 19 | HISESMYYQSRNKNNIA | EMSTRER | QHYDRLPLS | 1.83 0.79 0.80 0.69 1.05 1.17 | 1 of 18 (2.34) |
| 20 | KVNQLMNIEQMNTKSVA | HTSTREN | QQYHRLPLS | 1.03 0.88 0.34 0.47 0.28 0.77 | 0 of 18 |
| 21 | MLLQATMYGEKQRNSVA | HAQTRED | QQYHRLPLI | n.d. n.d. 1.67 1.42 n.d. n.d. | 2 of 18 (1.71) |
| 22 | MLSDLVKMGSRNTNSVA | DNSTRGD | QQYDRLPLS | n.d. 2.27 n.d. n.d. n.d. n.d. | 0 of 18 |
| 23 | TISQSFLMENQFKNSVA | QASTREE | QCYDRLPLS | n.d. n.d. n.d. 3.53 n.d. 4.30 | 1 of 18 (2.80) |
| 24 | NISQMFYMETKNVNNVA | QTSTRES | QDYHRLPLS | 0.20 -0.03 -0.10 -0.13 -0.17 0.14 | 1 of 18 (2.21) |
| 25 | MFSQLVYTGSRTRNAVA | QASTREN | QQYHRLPLA | 1.23 n.d. n.d. n.d. n.d. n.d. | 0 of 18 |
| 26 | TLGDVTRQESNKKSSIA | DMSNRAD | QQYHRLPLS | 0.31 0.26 0.29 0.15 0.24 0.43 | 0 of 18 |
| 27 | KLYVSTMLESHQKNSIA | DLSTRGN | QQYHRLPLS | 0.50 0.19 0.33 0.23 0.24 0.23 | 1 of 18 (3.35) |
| 28 | KISQSVGMTSFNKNSVA | ENSTREN | QQYDRLPLS | 1.28 1.24 0.99 0.91 1.03 0.80 | 0 of 18 |
| 29 | KIGQTTTYHSQVGNSIA | QTSTREE | QQYHRLPLS | 0.23 0.33 0.16 0.19 -0.08 0.02 | 3 of 18 (2.27) |
| 30 | KISGMYQKESKNKNSVA | EMVNRVS | QQYDRLPLS | 0.34 0.63 0.15 0.19 0.19 0.63 | 1 of 18 (2.61) |
| 31 | MISQLFMYGSRNYNSVA | QASTREP | QQYDRLPLI | 0.76 1.20 0.96 1.11 1.33 1.13 | 0 of 18 |
| 32 | TISQSAQQESHNKNSVA | DLNVRGS | QQYDRLPLS | 1.06 1.06 2.81 2.94 1.31 1.42 | 1 of 18 (1.94) |
| 33 | LISSVWDYGSRNYNSVA | QTSTRES | QQYDRLPLS | 0.84 1.26 0.80 1.18 0.94 1.50 | 3 of 18 (2.68) |
| 34 | TLGQVTMQLSVNYNSVA | DANTSED | QQYDRLPLS | n.d. n.d. n.d. n.d. n.d. n.d. | 0 of 18 |

The closing 2 entries, repeated:

| CDR-L1 | CDR-L2 | CDR-L3 | log10 Kd (nM) by replicate | signal with controls |
|---|---|---|---|---|
| LISSVWDYGSRNYNSVA | QTSTRES | QQYDRLPLS | 0.84 1.26 0.80 1.18 0.94 1.50 | 3 of 18 (2.68) |
| TLGQVTMQLSVNYNSVA | DANTSED | QQYDRLPLS | n.d. n.d. n.d. n.d. n.d. n.d. | 0 of 18 |

From the AlphaSeq antibody data of Li et al. 2023 (doi:10.1038/s41467-023-39022-2), copy in the FLAb collection.